Values quoted from earlier work as cited in paper PMC4310626 (Biochemistry, 2014).

Molecular target: T1, E. coli NDH-1 wild-type (Escherichia coli, UniProt P0AFD4+P33599)
T1 sequence (P33599 1-596): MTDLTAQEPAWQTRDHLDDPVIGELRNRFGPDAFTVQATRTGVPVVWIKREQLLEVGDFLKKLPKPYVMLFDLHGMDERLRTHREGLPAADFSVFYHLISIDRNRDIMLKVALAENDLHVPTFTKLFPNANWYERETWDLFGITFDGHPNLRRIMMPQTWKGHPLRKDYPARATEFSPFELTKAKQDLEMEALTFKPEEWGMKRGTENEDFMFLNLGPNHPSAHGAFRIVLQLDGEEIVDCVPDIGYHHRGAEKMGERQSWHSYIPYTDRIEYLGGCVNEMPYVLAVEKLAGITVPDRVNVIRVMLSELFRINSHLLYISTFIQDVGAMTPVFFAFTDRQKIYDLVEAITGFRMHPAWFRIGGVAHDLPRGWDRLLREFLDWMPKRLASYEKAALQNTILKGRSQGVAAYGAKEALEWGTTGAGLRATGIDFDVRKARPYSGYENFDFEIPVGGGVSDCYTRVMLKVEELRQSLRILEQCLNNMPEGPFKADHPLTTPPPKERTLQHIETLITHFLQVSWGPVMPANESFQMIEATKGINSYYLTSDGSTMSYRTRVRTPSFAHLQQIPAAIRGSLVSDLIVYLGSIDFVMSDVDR
T1 sequence (P0AFD4 1-325): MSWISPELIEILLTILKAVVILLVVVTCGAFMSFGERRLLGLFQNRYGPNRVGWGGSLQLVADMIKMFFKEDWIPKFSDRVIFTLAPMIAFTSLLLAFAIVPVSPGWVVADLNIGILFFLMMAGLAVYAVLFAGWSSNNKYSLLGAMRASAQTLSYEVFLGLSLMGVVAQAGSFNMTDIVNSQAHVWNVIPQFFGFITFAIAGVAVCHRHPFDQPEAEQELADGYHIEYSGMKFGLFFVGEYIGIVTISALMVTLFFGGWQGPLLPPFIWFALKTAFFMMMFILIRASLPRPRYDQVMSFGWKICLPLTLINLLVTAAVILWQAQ
T1 sequence (P0AFC7 1-220 partner): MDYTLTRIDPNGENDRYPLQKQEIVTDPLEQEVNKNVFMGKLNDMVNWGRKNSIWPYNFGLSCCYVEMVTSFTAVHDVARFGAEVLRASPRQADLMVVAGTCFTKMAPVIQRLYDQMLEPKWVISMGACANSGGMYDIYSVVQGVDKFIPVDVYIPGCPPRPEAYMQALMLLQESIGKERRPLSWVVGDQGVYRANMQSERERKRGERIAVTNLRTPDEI
Settings: read-out: IC50 value, ref [16],[55]; cited from earlier work

## asimicin
  IC50: 2 to 10 nM
